Earlier results as cited in article PMC12305498.

Target: RHOGDI (Homo sapiens) (UniProt P52565)

Question: For RAC (from UniProt P63000), which Kd is on record?
Answer: 5.7 µM
